# Data reported in patent US6953812B2, “Glucagon antagonists/inverse agonists” (Novo Nordisk, Inc., priority 2000, dated 2005).
# By UniProt entry, the sequences of proteins in these tests, tags left out. Residues count along the entry.
# UniProt P47871, 26-477: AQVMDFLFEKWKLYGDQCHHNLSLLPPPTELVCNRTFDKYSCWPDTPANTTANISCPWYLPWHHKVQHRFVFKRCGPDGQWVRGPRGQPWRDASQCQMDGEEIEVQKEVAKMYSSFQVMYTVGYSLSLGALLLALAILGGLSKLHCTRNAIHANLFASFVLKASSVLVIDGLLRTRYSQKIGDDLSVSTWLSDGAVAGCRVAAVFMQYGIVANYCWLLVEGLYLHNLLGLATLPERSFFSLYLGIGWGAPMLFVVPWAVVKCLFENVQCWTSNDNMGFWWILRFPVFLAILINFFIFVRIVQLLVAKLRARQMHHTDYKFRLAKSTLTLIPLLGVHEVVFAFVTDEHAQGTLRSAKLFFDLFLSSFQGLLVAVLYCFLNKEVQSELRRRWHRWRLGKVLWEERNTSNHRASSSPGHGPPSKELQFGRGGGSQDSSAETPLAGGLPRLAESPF
# Experiments:
# [1] = target: T1, human GIP receptor (Homo sapiens, UniProt P48546); assay: GIP Binding Assay
# T1 construct: expressed in transfected cells; host or cells: BHK (baby hamster kidney) cells, membrane preparation
# T1 sequence (P48546 22-466): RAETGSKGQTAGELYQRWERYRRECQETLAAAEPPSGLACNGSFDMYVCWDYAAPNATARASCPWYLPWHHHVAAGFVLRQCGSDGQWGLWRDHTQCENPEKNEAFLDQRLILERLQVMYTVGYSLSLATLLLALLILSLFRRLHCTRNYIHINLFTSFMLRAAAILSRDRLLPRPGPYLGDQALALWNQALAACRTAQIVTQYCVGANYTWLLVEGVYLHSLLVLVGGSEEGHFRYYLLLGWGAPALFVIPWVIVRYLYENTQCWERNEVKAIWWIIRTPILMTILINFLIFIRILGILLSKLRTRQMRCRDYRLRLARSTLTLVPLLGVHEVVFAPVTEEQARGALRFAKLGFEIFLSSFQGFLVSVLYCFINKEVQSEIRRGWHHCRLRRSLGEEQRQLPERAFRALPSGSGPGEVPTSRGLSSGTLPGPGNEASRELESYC
# Description: BHK (baby hamster kidney cell line) cells are transfected with the human GIP receptor and a membrane preparation of the cells is prepared.
# All steps in the membrane preparation are kept on ice or performed at 4° C. BHK cells are harvested and centrifuged. The pellet is resuspended in homogenisation buffer (25 mM) HEPES, pH=7.4, 2.5 mM CaCl2, 1.0 mM MgCl2, 250 mg/L bacitracin, 0.1 mM Pefabloc), homogenised 2×10 sec using Polytron 10-35 homogenizer (Kinematica) and added the same amount of homogenisation buffer as used for resuspension. After centrifugation (15 min at 2000×g) the supernatant is transferred to cold centrifuge tubes and centrifuged for 45 min at 40.000×g. The pellet is resuspended in homogenisation buffer, homogenised 2×10 sec (Polytron) and additional homogenisation buffer is added. The suspension is centrifuged for 45 min at 40.000×g and the pellet is resuspended in resuspension buffer (25 mM HEPES, pH=7.4, 2.5 mM CaCl2, 1.0 mM MgCl2) and homogenised 2×10 sec. (Polytron). […] Stabilisation buffer (25 mM HEPES, pH=7.4, 2.5 mM CaCl2, 1.0 mM MgCl2, 1% bovine serum albumin, 500 mg/L bacitracin, 2.5 M sucrose) is added and the membrane preparation is stored at −80° C.
# The GIP binding assay is carried out in opti plates (Polystyrene Microplates, Packard). […] The opti plates are counted in a Top-counter. Non-specific binding is determined with 500 nM of GIP.
# [2] = target: T2, human glucagon receptor (Homo sapiens, UniProt P47871); assay: Glucagon Binding Assay (II)
# T2 construct: expressed in transfected cells; host or cells: BHK (baby hamster kidney) cells, membrane preparation
# Description: Glucagon Binding Assay (II)
# BHK (baby hamster kidney cell line) cells are transfected with the human glucagon receptor and a membrane preparation of the cells is prepared.
# All steps in the membrane preparation are kept on ice or performed at 4° C. BHK cells are harvested and centrifuged. The pellet is resuspended in homogenisation buffer (25 mM HEPES, pH=7.4, 2.5 mM CaCl2, 1.0 mM MgCl2, 250 mg/L bacitracin, 0.1 mM Pefabloc), homogenised 2×10 sec using Polytron 10-35 homogenizer (Kinematica) and added the same amount of homogenisation buffer as used for resuspension. After centrifugation (15 min at 2000×g) the supernatant is transferred to cold centrifuge tubes and centrifuged for 45 min at 40.000×g. The pellet is resuspended in homogenisation buffer, homogenised 2×10 sec (Polytron) and additional homogenisation buffer is added. The suspension is centrifuged for 45 min at 40.000×g and the pellet is resuspended in resuspension buffer (25 mM HEPES, pH=7.4, 2.5 mM CaCl2, 1.0 mM MgCl2) and homogenised 2×10 sec. (Polytron). […]
# The glucagon binding assay is carried out in opti plates (Polystyrene Microplates, Packard). […] The opti plates are counted in a Topcounter. Non-specific binding is determined with 500 nM of glucagon.
structure (smiles),measurement,setting,value
O=C(NC[C@@H](O)C(=O)O)c1ccc(CN(C(=O)Nc2cc(F)cc(C(F)(F)F)c2)c2ccc(C3=CCCCC3)cc2)cc1 [Example 28],IC50,[1],364 nM
same,IC50,[2],19 nM
